Assay results published in patent US7402595B2, “JNK inhibitor” (Takeda Pharmaceutical Company Limited, priority 2002, dated 2008).
pIC50: −log10 of the molar value.

By UniProt entry, the sequences of proteins in these tests, tags left out. Residues count along the entry.
UniProt P45983, 1-384 isoform P45983-2: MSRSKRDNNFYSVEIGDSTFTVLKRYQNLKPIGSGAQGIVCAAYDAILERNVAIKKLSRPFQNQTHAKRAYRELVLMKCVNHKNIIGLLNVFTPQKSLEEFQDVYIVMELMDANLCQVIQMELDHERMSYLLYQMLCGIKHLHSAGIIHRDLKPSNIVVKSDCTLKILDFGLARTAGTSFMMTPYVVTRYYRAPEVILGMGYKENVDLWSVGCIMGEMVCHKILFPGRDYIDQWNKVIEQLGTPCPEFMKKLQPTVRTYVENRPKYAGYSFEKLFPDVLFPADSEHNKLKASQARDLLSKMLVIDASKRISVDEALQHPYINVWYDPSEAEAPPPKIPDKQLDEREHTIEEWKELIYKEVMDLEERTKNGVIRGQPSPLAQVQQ

Assays:
Male wistar rats = experiment: Pressure overloaded cardiac hypertrophy induced by an abdominal aortic stenosis (rat); type: in vivo; conditions: 10 mg/kg p.o. once a day, day 7 after aortic stenosis
Protocol: Preparation of the Model of Pressure Overloaded Cardiac Hypertrophy Induced by an Abdominal Aortic Stenosis (Rat)
Male wistar rats (body weight 260-300 g, CLEA Japan, Inc) were used. Under xylazine (10 mg/kg, i.p.) and ketamine (50 mg/kg, i.p.) anesthesia, abdominal aorta was exposed by median laparotomy. The left and right renal arteries were detached from the back, a 22G injection needle was put along the artery and it was ligated together with the aorta using a 2-0 silk thread just below the right renal artery. Then, the injection needle was removed to make a stenosis in the abdominal aorta. The abdomen was closed and the rats were housed commonly. For a sham group, the abdomen was closed without ligation (no stenosis) with a silk thread. […] At day 7 after the preparation of aortic stenosis, the body weight was measured, and the heart was removed and then extracted under pentobarbital (50 mg/kg, i.p.) anesthesia. The right and left artium and right ventricle were excised from the heart and the wet weight of the left ventricle was measured. The left ventricle weight to body weight ratio of each rat was calculated and an increase from the average value of the sham group was calculated. Inhibitory rate of each group to a cardiac hypertrophy was calculated based on the control group as 100%.

human JNK1 = target: T1, human JNK1 (Homo sapiens, UniProt P45983); experiment: Measurement of JNK inhibitory activity (32P uptake into cJUN by active JNK1); type: biochemical; conditions: 2.5 μM ATP, 30° C., 60 min
T1 construct: His6 (Met-Ala-His6, read from primer JNK1-U) (N); made in house; host or cells: Sf-21 insect cells (baculovirus BAC-HJNK1 co-infected with BAC-caMKK7); cJUN substrate from E. coli JM109
Protocol: (4) Preparation of Active JNK1
Sf-21 cells were seeded to achieve 1×10^6 cells/ml in 100 ml of Sf-900 II SFM medium (GIBCO BRL) containing 10% fetal calf serum and cultured at 27° C. for 24 hrs. The recombinant baculovirus virus stock BAC-HJNK1 and BAC-caMKK7 were added by 0.2 ml each, and the cells were further cultured for 60 hrs. The cells were separated from the culture solution by centrifugation (3000 rpm, 10 min.) and washed twice with PBS. The cells were suspended in 10 ml of Lysis buffer (25 mM HEPES (pH 7.5), 1% Triton X, 130 mM NaCl, 1 mM EDTA, 1 mM DTT, 25 mM β-glycerophosphate, 20 μM leupeptin, 1 mM APMSF, 1 mM sodium orthovanadate) and ruptured by 4 times of treatment with a homogenizer (POLYTRON) at 20000 rpm, 30 seconds each. Active JNK1 was purified from a supernatant obtained by centrifugal separation (40000 rpm, 45 min.) by the use of Anti-FLAG M2 Affinity Gel (Sigma).
(5) Preparation of Recombinant cJUN
Escherichia coli JM109 (Toyobo Co., Ltd.) was transformed with a plasmid pGEJUN to give ampicillin resistant pGEJUN/JM109. […]
A reaction solution (37.5 μl, 25 mM HEPES (pH 7.5), 10 mM magnesium acetate, 1 mM DTT) containing 50 ng of active JNK1 and 1 μg of cJUN was dissolved in DMSO. […] After drying at 45° C. for 60 min., 40 μl of Microscint 0 (Packard Japan) was added and the radioactivity was measured on TopCount (Packard Japan).

SMILES: COC(=O)c1c(-c2ccccc2)c2cc(Br)ccc2c(=O)n1Cc1ccc(S(C)(=O)=O)cc1 [Example 94, 6-bromo-2-(4-methanesulfonylbenzyl)-1-oxo-4-phenyl-1,2-dihydroisoquinoline-3-carboxylic acid methyl ester]
- Left ventricular weight/body weight ratio (mg/g) amount of increase from sham group (Male wistar rats): 0.31 ± 0.06 (Inhibitory mg/g
- Left ventricular weight/body weight ratio (mg/g) value (Male wistar rats): 2.21 ± 0.06 mg/g
- pIC50 (human JNK1): 7.52
